Test results: patent publication US10023592B2, “Bromodomain inhibitors” (Celgene Quanticel Research, Inc., priority 2013, dated 2018)

Molecular target: BRD4(BD1) (Homo sapiens (Human), UniProt O60885)
Assay: In vitro enzyme inhibition assay (BRD4 AlphaScreen)
Assay type: binding
Conditions: read-out: BRD4 IC50

Cc1cc(-c2cc(OCc3cccc(Cl)c3Cl)cc(S(C)(=O)=O)c2)cn(C)c1=O was tested. Which IC50 did it give?
The IC50 was 500 to 5000 nM.
